Measurements taken from patent publication US20230044248A1, “COMBINED INHIBITION OF PD-1, TGFBeta AND ATM TOGETHER WITH RADIOTHERAPY FOR THE TREATMENT OF CANCER” (ARES TRADING S.A., priority 2019, published 2023).

Legend:
[1] = system: 4T1 cells; experiment: Example 3: triple combination versus dual and monotherapy controls, 4T1 mammary tumor model; conditions: p<0.0001, day 14; bintrafusp alfa 492 μg i.v. day 0, 2, 4; Compound A 100 mg/kg p.o. days 0-4
[2] = system: 4T1 cells; experiment: Example 1: bintrafusp alfa, RT and Compound A in the 4T1 mammary tumor model; assay type: in vivo, BALB/c mice; conditions: p<0.0001, day 13; bintrafusp alfa 492 μg i.v. day 0, 2, 4; RT 8 Gy day 0-3
[3] = system: MC38 cells; experiment: Example 5: triple combination versus dual and monotherapy controls, intramuscular MC38 murine colon carcinoma model; conditions: day 65; bintrafusp alfa 164 μg i.v. Day 0; RT 1.8Gy QDx4; Compound A 100 mg/kg p.o. QDx4 where given
[4] = system: 4T1 cells; experiment: Example 2: dosing schedule of Compound A in the triple combination, 4T1 mammary tumor model; conditions: p<0.0001, day 14; bintrafusp alfa 492 μg i.v. day 0, 2, 4; RT 8 Gy day 0-3

Row | Compound | tumor growth relative to isotype control (monotherapies) [1] | tumor growth relative to isotype control [2] | mice showing tumor free survival [3] | tumor growth relative to isotype control [4]
1 | COc1cc2ncc3c(c2cc1-c1cn(C)nc1C)n(-c1c(F)cncc1OC)c(=O)n3C [Compound A, 8-(1,3-Dimethyl-1H-pyrazol-4-yl)-1-(3-fluoro-5-methoxy-pyridin-4-yl)-7-methoxy-3-methyl-1,3-dihydro-imidazo[4,5-c]quinolin-2-one] | significantly inhibited |  |  | 
2 | bintrafusp alfa and RT: dual combination therapy of bintrafusp alfa with radiotherapy (RT) |  | significantly inhibited tumor growth | 6 of 10 | significantly inhibited tumor growth
3 | bintrafusp alfa: anti-PD-L1/TGFβ Trap fusion protein; light chain SEQ ID NO: 7, heavy chain fused to TGFβRII extracellular domain SEQ ID NO: 8 | significantly inhibited |  |  | 
